Reference: ChEMBL document CHEMBL5608256, “Nicotinic Acid Derivatives As Novel Noncompetitive α-Amylase and α-Glucosidase Inhibitors for Type 2 Diabetes Treatment” (ACS Med Chem Lett, 2024)

Protein sequences, listed by entry. Tags and fused reporters are not part of them. Lines headed by an entry give the natural chain unless they say otherwise; changes in a name come on top.
UniProt P53341: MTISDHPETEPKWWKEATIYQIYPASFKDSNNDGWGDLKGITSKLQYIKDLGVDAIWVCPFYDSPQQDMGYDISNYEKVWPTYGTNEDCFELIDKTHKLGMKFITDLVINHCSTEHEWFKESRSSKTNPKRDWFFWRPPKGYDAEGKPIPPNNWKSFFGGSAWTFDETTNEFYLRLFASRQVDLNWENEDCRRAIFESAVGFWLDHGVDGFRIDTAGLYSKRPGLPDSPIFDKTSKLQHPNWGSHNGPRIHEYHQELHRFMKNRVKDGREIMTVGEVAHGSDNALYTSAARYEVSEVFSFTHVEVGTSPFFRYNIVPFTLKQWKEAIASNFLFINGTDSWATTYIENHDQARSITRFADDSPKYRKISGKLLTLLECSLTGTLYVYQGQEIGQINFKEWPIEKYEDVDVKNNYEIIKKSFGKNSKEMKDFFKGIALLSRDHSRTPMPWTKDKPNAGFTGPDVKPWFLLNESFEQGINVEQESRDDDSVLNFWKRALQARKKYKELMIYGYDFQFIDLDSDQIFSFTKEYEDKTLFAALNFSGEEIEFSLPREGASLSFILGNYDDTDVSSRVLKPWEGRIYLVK
UniProt P38158: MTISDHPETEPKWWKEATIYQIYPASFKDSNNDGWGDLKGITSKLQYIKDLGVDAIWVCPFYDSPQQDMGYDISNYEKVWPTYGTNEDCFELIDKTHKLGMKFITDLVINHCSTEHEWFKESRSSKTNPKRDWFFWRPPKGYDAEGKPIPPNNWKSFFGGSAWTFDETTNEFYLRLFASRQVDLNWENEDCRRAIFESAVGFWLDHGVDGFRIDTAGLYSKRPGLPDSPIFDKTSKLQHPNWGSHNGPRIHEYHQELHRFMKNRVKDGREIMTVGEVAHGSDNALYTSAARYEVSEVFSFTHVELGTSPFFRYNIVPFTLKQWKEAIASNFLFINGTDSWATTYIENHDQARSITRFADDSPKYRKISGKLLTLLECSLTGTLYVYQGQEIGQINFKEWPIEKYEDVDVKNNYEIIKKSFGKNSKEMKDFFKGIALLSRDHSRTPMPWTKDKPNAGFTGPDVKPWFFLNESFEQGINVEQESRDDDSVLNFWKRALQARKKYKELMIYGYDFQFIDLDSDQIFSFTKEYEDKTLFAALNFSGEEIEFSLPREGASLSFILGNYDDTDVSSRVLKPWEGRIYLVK
UniProt P07265: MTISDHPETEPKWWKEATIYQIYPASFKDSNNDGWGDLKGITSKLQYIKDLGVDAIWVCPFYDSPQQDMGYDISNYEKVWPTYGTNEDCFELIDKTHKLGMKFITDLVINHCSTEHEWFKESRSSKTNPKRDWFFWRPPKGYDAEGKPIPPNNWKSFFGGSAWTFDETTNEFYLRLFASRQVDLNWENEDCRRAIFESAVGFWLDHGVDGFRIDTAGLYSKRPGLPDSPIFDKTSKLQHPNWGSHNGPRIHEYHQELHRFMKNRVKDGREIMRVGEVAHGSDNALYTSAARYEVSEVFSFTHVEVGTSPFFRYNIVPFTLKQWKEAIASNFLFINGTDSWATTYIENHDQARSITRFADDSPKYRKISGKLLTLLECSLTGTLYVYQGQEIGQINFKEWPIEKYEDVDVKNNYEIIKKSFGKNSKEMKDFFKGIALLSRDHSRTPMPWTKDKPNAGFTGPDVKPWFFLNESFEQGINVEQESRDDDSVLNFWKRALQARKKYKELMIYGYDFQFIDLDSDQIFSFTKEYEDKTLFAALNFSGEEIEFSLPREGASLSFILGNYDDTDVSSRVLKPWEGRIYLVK

Target: Alpha-glucosidase (Saccharomyces cerevisiae S288c, UniProt P53341+P38158+P07265)
Experiment: Inhibition of Saccharomyces cerevisiae alpha-glucosidase using p-nitrophenyl-alpha-D-glucopyranoside as substrate preincubated with substrate for 5 mins followed by enzyme addition and measured after 15 mins
Type: protein assay

IC50: 14.7 µM
Compound: OCC(CO)N[C@H]1C[C@](O)(CO)[C@@H](O)[C@H](O)[C@H]1O [VOGLIBOSE]
